From PMC7933434, “Entropy-driven binding of gut bacterial β-glucuronidase inhibitors ameliorates irinotecan-induced toxicity” (Communications Biology, 2021)

Amino acid sequences for entries named in this document (tags omitted). A change or cut given only in a name is not applied to a line headed by its entry. Residues count along the entry.
UniProt P05804: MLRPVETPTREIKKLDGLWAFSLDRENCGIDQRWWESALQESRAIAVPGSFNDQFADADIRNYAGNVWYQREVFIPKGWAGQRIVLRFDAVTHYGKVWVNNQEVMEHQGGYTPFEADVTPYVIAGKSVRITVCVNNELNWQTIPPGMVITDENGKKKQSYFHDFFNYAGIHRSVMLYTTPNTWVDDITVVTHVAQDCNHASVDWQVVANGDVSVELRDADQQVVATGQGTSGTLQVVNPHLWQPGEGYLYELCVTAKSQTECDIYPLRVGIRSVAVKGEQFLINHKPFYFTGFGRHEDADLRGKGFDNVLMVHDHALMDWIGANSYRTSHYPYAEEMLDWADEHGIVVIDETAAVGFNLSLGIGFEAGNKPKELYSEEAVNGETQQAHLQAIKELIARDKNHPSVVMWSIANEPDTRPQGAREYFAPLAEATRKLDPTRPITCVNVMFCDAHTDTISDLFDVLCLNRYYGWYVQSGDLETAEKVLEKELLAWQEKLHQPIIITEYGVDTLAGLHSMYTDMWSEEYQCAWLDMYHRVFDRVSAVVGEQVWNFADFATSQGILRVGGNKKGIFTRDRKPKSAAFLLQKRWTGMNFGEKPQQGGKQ
UniProt Q9AHJ8, 1-598: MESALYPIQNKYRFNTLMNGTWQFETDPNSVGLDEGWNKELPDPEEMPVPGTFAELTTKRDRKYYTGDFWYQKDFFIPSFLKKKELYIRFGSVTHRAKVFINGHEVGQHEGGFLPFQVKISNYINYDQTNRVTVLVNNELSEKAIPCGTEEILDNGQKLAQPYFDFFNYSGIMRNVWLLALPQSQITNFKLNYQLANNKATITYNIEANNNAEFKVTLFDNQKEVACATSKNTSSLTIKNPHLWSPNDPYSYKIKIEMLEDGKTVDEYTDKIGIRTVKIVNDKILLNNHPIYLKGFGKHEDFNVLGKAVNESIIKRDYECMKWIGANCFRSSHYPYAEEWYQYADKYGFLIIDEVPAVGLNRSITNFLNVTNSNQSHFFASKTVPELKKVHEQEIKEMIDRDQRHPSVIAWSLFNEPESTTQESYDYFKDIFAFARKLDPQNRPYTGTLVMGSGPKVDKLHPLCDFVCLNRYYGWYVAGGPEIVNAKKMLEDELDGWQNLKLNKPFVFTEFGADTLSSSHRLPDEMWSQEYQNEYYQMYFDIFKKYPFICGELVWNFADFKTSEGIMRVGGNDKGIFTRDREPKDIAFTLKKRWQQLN
UniProt D2Q7B1, 1-668: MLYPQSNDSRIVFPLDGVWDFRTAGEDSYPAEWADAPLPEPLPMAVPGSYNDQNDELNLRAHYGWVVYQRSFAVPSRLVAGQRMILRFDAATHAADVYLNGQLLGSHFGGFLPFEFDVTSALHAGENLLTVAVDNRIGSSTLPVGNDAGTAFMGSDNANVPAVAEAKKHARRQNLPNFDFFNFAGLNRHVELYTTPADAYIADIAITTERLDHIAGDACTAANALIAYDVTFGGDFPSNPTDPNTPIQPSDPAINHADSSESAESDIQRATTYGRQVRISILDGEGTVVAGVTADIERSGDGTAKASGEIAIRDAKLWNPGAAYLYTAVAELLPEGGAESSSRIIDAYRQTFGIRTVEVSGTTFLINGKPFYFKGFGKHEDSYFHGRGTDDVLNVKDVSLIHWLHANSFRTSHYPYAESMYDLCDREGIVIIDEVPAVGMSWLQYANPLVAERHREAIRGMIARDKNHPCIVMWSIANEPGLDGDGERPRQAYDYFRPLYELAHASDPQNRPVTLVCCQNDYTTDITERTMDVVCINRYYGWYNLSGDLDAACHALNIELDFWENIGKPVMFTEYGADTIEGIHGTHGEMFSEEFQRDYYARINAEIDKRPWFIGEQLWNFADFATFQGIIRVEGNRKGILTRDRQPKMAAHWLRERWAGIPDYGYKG

What was measured:
[1] = target: EcGUS (Escherichia coli GUS) (Escherichia coli, UniProt P05804); assay: GUS inhibition assay, hydrolysis of 4-methylumbelliferyl-β-glucuronide, EcGUS; assay type: biochemical; conditions: ratio of Ki HsGUS / EcGUS
[2] = target: LgGUS (Lactobacillus gasseri GUS) (Lactobacillus gasseri, UniProt Q9AHJ8); assay: GUS inhibition assay, hydrolysis of 4-methylumbelliferyl-β-glucuronide, LgGUS; assay type: biochemical; conditions: more potent than for HsGUS
[3] = target: BdGUS (Bifidobacterium dentium GUS) (Bifidobacterium dentium, UniProt D2Q7B1); conditions: more potent than for HsGUS

Compound	selectivity for EcGUS over HsGUS [1]	selectivity for LgGUS over HsGUS [2] [fold]	selectivity for BdGUS over HsGUS [3] [fold]
CCCCCC[C@@H]1NC[C@@H](O)[C@H](O)[C@H]1C(=O)O	1770 fold		
CCCCCCCCC[C@@H]1NC[C@@H](O)[C@H](O)[C@H]1C(=O)O [Inhibitor 4, C6-nonyl UIFG]	23,300 fold	390	240
